Experimental data: BindingDB's records for PubMed 20126400 (University of Oklahoma, 2010)

The chains behind the UniProt entries cited, without tags or fusion partners. Where a name states a change or a piece, a line headed by the entry shows the natural chain unless it says otherwise.
UniProt P18089, whole entry: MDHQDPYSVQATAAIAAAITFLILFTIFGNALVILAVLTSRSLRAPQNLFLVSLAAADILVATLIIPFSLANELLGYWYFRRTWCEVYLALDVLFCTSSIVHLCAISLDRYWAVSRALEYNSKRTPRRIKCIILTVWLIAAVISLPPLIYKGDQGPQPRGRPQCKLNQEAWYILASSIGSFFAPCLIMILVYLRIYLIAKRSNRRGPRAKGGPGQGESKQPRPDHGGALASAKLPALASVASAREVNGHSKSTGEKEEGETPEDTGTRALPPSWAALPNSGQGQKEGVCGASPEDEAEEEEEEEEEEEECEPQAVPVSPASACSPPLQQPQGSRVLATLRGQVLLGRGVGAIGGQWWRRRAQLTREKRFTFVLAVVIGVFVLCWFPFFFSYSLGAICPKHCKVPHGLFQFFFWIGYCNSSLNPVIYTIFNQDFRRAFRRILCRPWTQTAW
UniProt P33535, whole entry: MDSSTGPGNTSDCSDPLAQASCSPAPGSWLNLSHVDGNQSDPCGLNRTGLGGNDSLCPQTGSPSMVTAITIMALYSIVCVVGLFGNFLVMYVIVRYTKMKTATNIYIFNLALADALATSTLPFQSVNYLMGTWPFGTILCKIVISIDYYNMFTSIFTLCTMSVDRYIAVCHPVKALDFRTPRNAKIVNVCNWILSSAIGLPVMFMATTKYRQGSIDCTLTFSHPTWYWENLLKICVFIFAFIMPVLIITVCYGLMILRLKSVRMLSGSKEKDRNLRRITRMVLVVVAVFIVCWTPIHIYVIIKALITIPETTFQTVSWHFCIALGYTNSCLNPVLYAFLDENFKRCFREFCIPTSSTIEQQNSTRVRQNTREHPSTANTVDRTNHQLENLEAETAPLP
UniProt P28566: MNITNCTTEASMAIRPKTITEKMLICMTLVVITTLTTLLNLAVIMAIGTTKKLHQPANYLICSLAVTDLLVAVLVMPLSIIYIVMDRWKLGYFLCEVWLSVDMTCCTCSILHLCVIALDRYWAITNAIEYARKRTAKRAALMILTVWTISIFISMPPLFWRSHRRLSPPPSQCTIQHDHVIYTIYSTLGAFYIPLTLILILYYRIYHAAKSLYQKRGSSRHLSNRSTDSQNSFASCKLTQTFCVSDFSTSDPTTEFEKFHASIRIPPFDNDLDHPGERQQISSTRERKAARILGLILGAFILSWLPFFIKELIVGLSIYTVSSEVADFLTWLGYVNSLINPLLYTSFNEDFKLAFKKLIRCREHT
UniProt P50406, whole entry: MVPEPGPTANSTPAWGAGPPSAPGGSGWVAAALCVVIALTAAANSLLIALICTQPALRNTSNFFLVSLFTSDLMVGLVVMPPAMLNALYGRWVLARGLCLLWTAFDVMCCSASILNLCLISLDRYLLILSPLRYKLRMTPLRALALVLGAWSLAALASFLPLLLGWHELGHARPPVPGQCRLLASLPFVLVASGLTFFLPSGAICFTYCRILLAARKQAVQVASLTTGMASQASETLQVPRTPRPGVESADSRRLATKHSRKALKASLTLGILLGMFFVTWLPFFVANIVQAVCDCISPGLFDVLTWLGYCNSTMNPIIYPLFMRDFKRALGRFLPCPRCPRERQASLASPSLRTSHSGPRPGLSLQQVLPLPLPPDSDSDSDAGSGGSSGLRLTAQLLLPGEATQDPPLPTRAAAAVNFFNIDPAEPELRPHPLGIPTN
UniProt P34969, whole entry: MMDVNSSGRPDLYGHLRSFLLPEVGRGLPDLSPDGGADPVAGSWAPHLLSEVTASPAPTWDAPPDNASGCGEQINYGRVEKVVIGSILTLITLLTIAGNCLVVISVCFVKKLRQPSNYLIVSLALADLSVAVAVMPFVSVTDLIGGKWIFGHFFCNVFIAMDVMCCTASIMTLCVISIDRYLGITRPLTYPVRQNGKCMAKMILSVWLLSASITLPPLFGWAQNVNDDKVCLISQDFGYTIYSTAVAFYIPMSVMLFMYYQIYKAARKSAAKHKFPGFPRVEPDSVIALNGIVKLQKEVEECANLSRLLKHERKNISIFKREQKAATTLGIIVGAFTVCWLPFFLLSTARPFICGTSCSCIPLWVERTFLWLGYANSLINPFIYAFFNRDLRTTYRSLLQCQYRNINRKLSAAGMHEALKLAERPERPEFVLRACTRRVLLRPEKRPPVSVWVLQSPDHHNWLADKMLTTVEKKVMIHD
UniProt P11229: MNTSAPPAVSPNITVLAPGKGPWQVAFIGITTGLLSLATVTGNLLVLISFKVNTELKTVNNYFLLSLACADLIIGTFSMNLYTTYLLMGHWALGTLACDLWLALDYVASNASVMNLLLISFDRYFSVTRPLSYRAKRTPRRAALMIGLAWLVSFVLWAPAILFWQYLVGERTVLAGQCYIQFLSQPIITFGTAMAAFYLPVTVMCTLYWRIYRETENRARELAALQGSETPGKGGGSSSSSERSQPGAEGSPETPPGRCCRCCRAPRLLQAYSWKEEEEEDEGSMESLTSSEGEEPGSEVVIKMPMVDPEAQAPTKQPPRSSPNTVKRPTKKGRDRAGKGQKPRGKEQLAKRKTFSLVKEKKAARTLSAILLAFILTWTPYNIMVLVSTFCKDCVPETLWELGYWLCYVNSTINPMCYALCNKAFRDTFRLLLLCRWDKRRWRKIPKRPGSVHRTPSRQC
UniProt P21917, whole entry: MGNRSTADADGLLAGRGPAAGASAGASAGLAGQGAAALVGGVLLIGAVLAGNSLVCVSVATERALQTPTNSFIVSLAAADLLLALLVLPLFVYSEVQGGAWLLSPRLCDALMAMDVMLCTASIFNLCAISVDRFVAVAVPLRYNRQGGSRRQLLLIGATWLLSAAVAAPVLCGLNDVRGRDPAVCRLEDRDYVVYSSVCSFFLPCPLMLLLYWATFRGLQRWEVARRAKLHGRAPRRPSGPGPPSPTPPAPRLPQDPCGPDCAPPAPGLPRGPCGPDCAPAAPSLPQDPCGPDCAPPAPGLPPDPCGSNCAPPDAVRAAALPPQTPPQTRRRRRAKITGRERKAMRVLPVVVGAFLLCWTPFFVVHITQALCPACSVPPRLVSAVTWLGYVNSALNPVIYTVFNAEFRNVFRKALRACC

Legend:
[1] = target: Alpha-2B adrenergic receptor (Homo sapiens, UniProt P18089); assay: Ray2010 Assay 74
[2] = target: T1, Mu-type opioid receptor (Rattus norvegicus, UniProt P33535); assay: Ray2010 Assay 56
Description: DAGO forebrain .

[3] = target: T1, Mu-type opioid receptor; assay: Ray2010 Assay 57
Description: thalamic membraines Pablo et al. 1998.

[4] = target: 5-hydroxytryptamine receptor 1E (Homo sapiens, UniProt P28566); assay: Ray2010 Assay 74
[5] = target: 5-hydroxytryptamine receptor 6 (Homo sapiens, UniProt P50406); assay: Ray2010 Assay 74
[6] = target: 5-hydroxytryptamine receptor 7 (Homo sapiens, UniProt P34969); assay: Ray2010 Assay 74
[7] = target: Muscarinic acetylcholine receptor M1 (Homo sapiens, UniProt P11229); assay: Ray2010 Assay 74
[8] = target: D(4) dopamine receptor (Homo sapiens, UniProt P21917); assay: Ray2010 Assay 74

SMILES: CCOc1cc(OC)c(CC(C)N)cc1OC (centres undefined)
- Ki [1]: > 10000 nM

SMILES: CC[C@H]1C[C@@H]2C[C@H]3c4[nH]c5ccc(OC)cc5c4CCN(C2)[C@@H]13
- IC50 [2]: 26000 nM
- Ki [3]: 3760 nM

SMILES: CCSc1cc(OC)c(CC(N)CC)cc1OC (centres undefined) [1-(4-Ethylsulfanyl-2,5-dimethoxy-benzyl)-propylamine]
- Ki [1]: > 10000 nM

SMILES: CCSc1cc(OC)c(CC(C)N)cc1OC (centres undefined) [2-(4-Ethylsulfanyl-2,5-dimethoxy-phenyl)-1-methyl-ethylamine]
- Ki [4]: 3090 nM
- Ki [5]: 3020 nM
- Ki [1]: 2930 nM

SMILES: NCCc1c2c(c(Br)c3c1OCC3)OCC2 [2-(8-Bromo-2,3,6,7-tetrahydro-benzo[1,2-b;4,5-b']difuran-4-yl)-ethylamine]
- Ki [6]: 606 nM
- Ki [1]: 624 nM
- Ki [7]: 643 nM

SMILES: CCSc1cc(OC)c(CCN)cc1OC [2C-T-2]
- Ki [6]: 969 nM
- Ki [1]: 982 nM

SMILES: COc1ccc2[nH]cc(CCN(C)C(C)C)c2c1 [5-meo-mipt]
- Ki [1]: 1690 nM

SMILES: CN(C)CCc1c[nH]c2cc(F)ccc12 [6-f-dmt]
- Ki [1]: 260 nM

SMILES: COc1cc(OC)c(OC)cc1CC(C)N (stereo not drawn) [(+/-)1-Methyl-2-(2,4,5-trimethoxy-phenyl)-ethylamine]
- Ki [1]: > 10000 nM

SMILES: C[C@@H]1C[C@H](C)N1C(=O)C1C=C2c3cccc4[nH]cc(c34)C[C@H]2N(C)C1 (stereo partly drawn) [cis-2a]
- Ki [8]: 74.2 nM

SMILES: CC(C)N(CCc1c[nH]c2ccccc12)C(C)C [dipt]
- Ki [1]: 2870 nM

SMILES: C[C@@H]1C[C@@H](C)N1C(=O)C1C=C2c3cccc4[nH]cc(c34)C[C@H]2N(C)C1 (some centres undefined) [rr-2b]
- Ki [8]: 168 nM

SMILES: C[C@@H]1C[C@@H](C)N1C(=O)C1C=C2c3cccc4[nH]cc(c34)C[C@H]2N(C)C1 (some centres undefined) [ss-2c]
- Ki [8]: 95.5 nM
